Two compounds from ChEMBL document CHEMBL1155229, “Physical binding pocket induction for affinity prediction” (J Med Chem, 2009) can be followed below.

Chains of the proteins cited; added tags and fusions are not shown.
UniProt P08908, whole entry: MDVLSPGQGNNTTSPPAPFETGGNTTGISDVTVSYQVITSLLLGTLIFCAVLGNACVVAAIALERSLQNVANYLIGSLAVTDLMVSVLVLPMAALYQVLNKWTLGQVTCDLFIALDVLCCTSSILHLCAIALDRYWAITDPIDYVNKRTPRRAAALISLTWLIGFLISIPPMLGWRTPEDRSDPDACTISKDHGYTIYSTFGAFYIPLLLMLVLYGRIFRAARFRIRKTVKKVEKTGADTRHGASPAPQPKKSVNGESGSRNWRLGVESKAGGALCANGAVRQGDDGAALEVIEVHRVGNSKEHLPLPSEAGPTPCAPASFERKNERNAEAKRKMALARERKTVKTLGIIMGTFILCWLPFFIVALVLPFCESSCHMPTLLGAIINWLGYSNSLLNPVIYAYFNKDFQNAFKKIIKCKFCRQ

The test concerns the target 5-hydroxytryptamine receptor 1A (Homo sapiens, UniProt P08908). The test can be described thus: Binding affinity to 5HT1A receptor.

The term Kd denotes a measure of binding affinity in units of concentration. Read a high Kd as weaker binding. `CCCN1CC[C@H]2c3c(O)cccc3CC[C@H]21` had a Kd of 0.1 nM.

In the case of `CCCN1CC[C@@H]2c3c(O)cccc3CC[C@@H]21`, the Kd was 3.16 nM.
